The text below walks through data of the SangsterLogP compilation.

The structures appear in SMILES notation.

As a reminder, the logP is the decadic logarithm of the partition coefficient of the neutral form, usually between octanol and water. For `O=C(O)CCCCC(=O)O`, the log partition coefficient (logP) was 0.08.
